Reference: patent publication US5464551A, “Stabilized phosphate ester-based functional fluid compositions” (Monsanto Company, priority 1993, dated 1995)

Key:
[1] = Genotoxicity: in vivo cytogenetics
[2] = test system: CHO/HGPRT; assay: Genotoxicity: CHO/HGPRT
[3] = Dermal LD50 (Table A)
[4] = Eye irritation (Table A); conditions: in vivo
[5] = test system: Ames; assay: Genotoxicity: Ames
[6] = test system: Hen; assay: Hen neurotox (Table A); conditions: tested at LD50
[7] = Skin irritation (Table A); conditions: in vivo
[8] = Genotoxicity: in vitro cytogenetics
[9] = test system: Bladder; assay: Subchronic bladder hyperplasia (Table A)
[10] = Oral LD50 (Table A)
[11] = Erosion test, wall currents through simulated orifices (Table 5); conditions: sample as named; W samples fresh

CCCCOP(=O)(OCCCC)OCCCC
in vivo cytogenetics [1]: negative | CHO/HGPRT [2]: negative | Dermal LD50 [3]: > 10,000 mg/kg | Eye Irritation [4]: Mildly irritating | Ames [5]: negative | Hen Neurotox [6]: Not neurotoxic | Skin Irritation [7]: Severely irritating | in vitro cytogenetics [8]: negative | Subchronic Bladder Hyperplasia, level in rats [9]: > 1000 ppm | NOEL, subchronic bladder hyperplasia ([9]; rats): 200 ppm | Oral LD50 [10]: 1200 mg/kg | Independent Lab Cond. [11]: 0.008 μMHO/cm
